This is a selection: effects in other tests are not listed, and their absence says nothing.
Test system: Hirsutella rhossiliensis
Test: Effect of nitrogen source on growth, sporulation and spore germination
Conditions: for Growth mm-in-diam, on agar: nitrogen source 0.3296 g/L nitrogen; for Growth mm-in-diam, on agar / Sporulation 10^3/cm^2, on agar / growth in liquit culture (visual rating): 5 weeks; for Spore germination %, on agar / Sporulation 10^3/cm^2, on agar / growth in liquit culture (visual rating): nitrogen source

Ammonium nitrate
Growth mm-in-diam, on agar (isolate ATCC46487): 35.7 mm-in-diam | Growth mm-in-diam, on agar (isolate JA16-1): 11.0 mm-in-diam | Growth mm-in-diam, on agar (isolate OWVT-1): 17.2 mm-in-diam | Spore germination %, on agar (isolate ATCC46487): 93.3% | Sporulation 10^3/cm^2, on agar (isolate ATCC46487): 10.3 10^3/cm^2 | Spore germination %, on agar (isolate JA16-1): 91.1% | Sporulation 10^3/cm^2, on agar (isolate JA16-1): 2.3 10^3/cm^2 | growth in liquit culture (visual rating) (isolate JA16-1): III (III = hyphae growth or colonies form a pellet, less than 2.5 ml) | Spore germination %, on agar (isolate OWVT-1): 57.8% | Sporulation 10^3/cm^2, on agar (isolate OWVT-1): 4.6 10^3/cm^2 | growth in liquit culture (visual rating) (isolate OWVT-1): III (III = hyphae growth or colonies form a pellet, less than 2.5 ml)

— patent US7384629B2, “Biological control of nematodes with Hirsutella minnesotensis” (Regents of the University of Minnesota, priority 2000, dated 2008)
